Measurements taken from US20230150966A1, “ISOTOPICALLY ENRICHED 3,4-METHYLENEDIOXY-N-[…] (MDE) AND STEREOISOMERS THEREOF” (published 2023).

Tested on: Sprague-Dawley rats
Assay: Rat elevated zero maze model of anxiety
Conditions: positive control 6 mg/kg ip, male SD rats

## Chlordiazepoxide
  frequency of SAPs: significant reduction in SAPs
  percentage of time spent in the open arms: significant increase in time in the open arms for the R MDE group and S MDE group only
